# Binding of CDR-mutated scFvs to a peptide of the spike HR2 region

Values reported by Engelhart et al. 2022, doi:10.1038/s41597-022-01779-4 (FLAb copy).

Target: peptide PDVDLGDISGINAS, taken from heptad repeat 2 (HR2) of SARS-CoV-2 spike.

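The library (AAYL52) carries one to three amino acid substitutions per variant, with no insertions or deletions. In AlphaSeq, yeast of one mating type display the scFv and yeast of the other type display the target. After mating in shaken culture at 30 °C for 16 h, diploids were selected and their barcode pairs sequenced. A regression on co-assayed BCL2-family reference pairs converts the normalised counts of each replicate to an apparent Kd. There are three technical replicates.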

Ab-95 is the parent antibody, in scFv form: VH, then a (GGGGS)3 linker, then VL. The heavy chain is unchanged in all variants.
VH: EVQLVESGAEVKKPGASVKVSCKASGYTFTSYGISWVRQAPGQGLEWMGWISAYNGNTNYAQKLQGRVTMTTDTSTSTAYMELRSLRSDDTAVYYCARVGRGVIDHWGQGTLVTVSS
VL: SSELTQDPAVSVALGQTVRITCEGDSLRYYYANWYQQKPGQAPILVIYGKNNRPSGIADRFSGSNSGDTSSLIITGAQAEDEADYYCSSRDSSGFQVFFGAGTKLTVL

The parent's light chain CDRs are EGDSLRYYYAN, GKNNRPS, SSRDSSGFQVF; each variant's own CDRs replace them letter for letter. This list gathers variants with a substitution at N52 (VL, numbered from residue 1). Kd is apparent (estimated from mating counts) and averaged on the log scale over replicates with a signal. Smaller is tighter. An entry "no signal" has no value in the source: the pair was not observed among the diploids in any replicate. This suggests poor binding but is not conclusive. The list is sorted by this average, lowest first, undetected variants last. Background: pairings of library AAYL52 with three empty control strains gave a value in 28% of cases (median 8.2 µM, 5th percentile 800 nM). Values in that range, when seen in few replicates, are hard to tell from nonspecific mating.

EGDSLRYNYAN, GKNRTPS, SSRDSSGFQVF: 6.5 nM (3 of 3 replicates).
EGTSLRYYQAN, GKNMRPS, SSRDSSGFQVF: 6.9 nM (3 of 3 replicates).
EGDSLMYYYAN, GKNLRPS, SSRDSSGFEVF: 16 nM (3 of 3 replicates).
EGDSNPYYYAN, GKNLRPS, SSRDSSGFQVF: 74 nM (3 of 3 replicates).
EGDSLRYYYAN, GKNLRPS, SSRDSSGFQVF: 85 nM (3 of 3 replicates).
EGNPLRYYYAN, GKNERPS, SSRDSSGFQVF: 170 nM (3 of 3 replicates).
EGDSLRYYYAN, GKNQRPG, SFRDSSGFQVF: 280 nM (3 of 3 replicates).
AKDSLRYYYAN, GKNTRPS, SSRDSSGFQVF: 290 nM (3 of 3 replicates).
EGDSLRYYYAN, GKNCVPD, SSRDSSGFQVF: 440 nM (2 of 3 replicates).
EGDSLRYYYAN, GKNHRPD, SSNDSSGFQVF: 440 nM (3 of 3 replicates).
EGDSLRHPYAN, GKNKRPS, SSRDSSGFQVF: 660 nM (3 of 3 replicates).
SGDSLRYYYAN, GKNPRPS, SSRDSSGFQVF: 710 nM (3 of 3 replicates).
EGDSLRYYYAN, GLNWRPS, SSRDSSGFQMF: 710 nM (1 of 3 replicates).
EGDSLRYWYAN, GKNSRPS, SSRDSSGFQVF: 860 nM (3 of 3 replicates).
EGHSLRYYYAN, GKGGRPS, SSRDSSGFQVF: 880 nM (3 of 3 replicates).
EGTSLRYYYAN, GKNSRPS, SSRDSSGFQVF: 960 nM (3 of 3 replicates).
EGDSLRTLYAN, GKNKRPS, SSRDSSGFQVF: 1.3 µM (3 of 3 replicates).
EGDSLRYYYSN, GKNGRPS, SSRDSSGAQVF: 2.1 µM (3 of 3 replicates).
EGDSLRYYYAN, GKNGRPS, SSRDFSGFQVF: 2.3 µM (3 of 3 replicates).
EGDSLRYYYAN, GKNRRPT, SSRDSSGMQVF: 4.1 µM (3 of 3 replicates).
EGDSLRYYYPN, GKNDRPS, SSRDGSGFQVF: 4.7 µM (2 of 3 replicates).
EGDSLRLYYAN, GKNCRPS, SSRDSSGFQVA: 4.8 µM (3 of 3 replicates).
EGDSLRYYIAN, GKNRRPS, SSRDSSGFMVF: 7.7 µM (2 of 3 replicates).
EGDSLRYYYAN, GKNRRPS, SPRDSSGFQVF: 9.5 µM (2 of 3 replicates).
EGDSLRYYYAN, GKNERPS, SSRKSSGFRVF: 11 µM (1 of 3 replicates).
EGDSLFYYYAN, GKNCRPS, SSRDSSKFQVF: 13 µM (1 of 3 replicates).
EGDSLRYYYAP, FKNSRPS, SSRDSSGFQVF: 13 µM (1 of 3 replicates).
EGDSLRYYYAN, GKNHRPS, SSRDSVGFCVF: 15 µM (2 of 3 replicates).
EGDSLRVYWAN, GKNDRPS, SSRDSSGFQVF: 17 µM (3 of 3 replicates).
EGDSLRFYYAN, GKNCRPS, SSRDSSGFQVF: 18 µM (1 of 3 replicates).
EIDSLRYYFAN, GKNCRPS, SSRDSSGFQVF: 27 µM (2 of 3 replicates).
EGDSLRYYYAN, GKNERPQ, WSRDSSGFQVF: 150 µM (1 of 3 replicates).
EGDSLRYYYAN, GKQARPS, SSRDSSGFIVF: 670 µM (1 of 3 replicates).
EGDSLRYQYAN, PKNPRPS, SSRDSSGFQVF: no signal (0 of 3 replicates).
EGDSLRYYYAN, GKNCRPS, SSVDSSGFQVM: no signal (0 of 3 replicates).
EGDSLRTYYAN, GKNMRPS, SSRDSNGFQVF: no signal (0 of 3 replicates).
EGDSLKYYYAN, GKNLRPS, SSRDSSDFQVF: no signal (0 of 3 replicates).
ERDSLRYYYAN, GKNRRPS, SQRDSSGFQVF: no signal (0 of 3 replicates).

Repeated from above, the 3 best binders with a signal in all replicates:

For EGDSLRYNYAN, GKNRTPS, SSRDSSGFQVF, the assay gave 6.5 nM (3 of 3 replicates).
For EGTSLRYYQAN, GKNMRPS, SSRDSSGFQVF, the assay gave 6.9 nM (3 of 3 replicates).
For EGDSLMYYYAN, GKNLRPS, SSRDSSGFEVF, the assay gave 16 nM (3 of 3 replicates).